# Assay results published in US6472396B1, “Barbituric acid derivatives, processes for their production and pharmaceutical agents containing these compounds” (Roche Diagnostics GmbH, priority 1995, dated 2002).
# Sequences of proteins named here, by UniProt entry; tags and fusion partners are left off. Residues count along the entry.
# UniProt P22894, 100-262 limits assumed: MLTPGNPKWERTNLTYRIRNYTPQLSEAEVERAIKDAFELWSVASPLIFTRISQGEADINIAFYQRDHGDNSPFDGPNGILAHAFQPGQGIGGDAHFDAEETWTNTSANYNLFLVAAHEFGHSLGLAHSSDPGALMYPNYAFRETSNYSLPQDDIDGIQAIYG
# Biological target: T1, MMP-8 (Homo sapiens, UniProt P22894)
# T1 construct: catalytic domain (Met80-Gly242) of human neutrophil collagenase; made in house
# Experiment: Inhibition of MMPs (HNC catalytic domain), fluorogenic heptapeptide substrate DNP-Pro-Leu-Gly-Leu-Trp-Ala-D-Arg-NH2
# Type: biochemical
# Settings: MMP-8 (catalytic domain of human neutrophil collagenase), 25° C.
# Experimental: In order to determine the inhibition of MMPs, for example HNC, the catalytic domain (isolation and purification see for example Schnierer, S., Kleine, T., Gote, T., Hillemann, A., Knäuper, V., Tschesche, H., Biochem. Biophys. Res. Commun. (1993) 191, 319-326) is incubated with inhibitors having various concentrations. Subsequently, the initial reaction rate in the conversion of a standard substrate is measured in a manner analogous to Grams F. et al., FEBS 335 (1993) 76-80).
# The results are evaluated by plotting the reciprocal reaction rate against the concentration of the inhibitor. […]
# The synthetic collagenase substrate is a heptapeptide which is coupled, at the […], with DNP (dinitrophenol). Said DNP residue quenches by steric hindrance the fluorescence of the adjacent tryptophane of the heptapeptide. After cleavage of a tripeptide which includes the DNP group, the tryptophane fluorescence increases. The proteolytic cleavage of the substrate therefore can be measured by the fluorescence value.
# The assay was performed at 25° C. in a freshly prepared 50 mM Tris buffer (pH 8.0) treated with dithiozone to remove traces of heavy metals. […] Enzyme concentrations were determined by uv measurements (ε280=2.8 10^4 M1 cm^−1, ε288: 2.2 10^4 M^−1 cm^−1) and the stock solutions were stored in the cold. […] Substrate hydrolysis was monitored for 10 min. immediately after adding the enzyme. […]
substance,measurement,value
5-(4′-Biphenyl)-5-[N-(2-hydroxyethyl)piperazinyl]barbituric Acid [example 25],IC50,140 nM
